Experiments:
[1] = target: T1, Metabotropic glutamate receptor 5 (Rattus norvegicus, UniProt P31424); experiment: Activity at rat mGlu5 receptor expressed in CHO cells assessed as inhibition of quisqualate-stimulated calcium mobilization by FLIPR assay; type: functional, cell-based
[2] = target: T1, Metabotropic glutamate receptor 5; experiment: Displacement of [3H]MPEP from mGlu5 receptor in rat brain; type: tissue-based

Protein sequences, listed by entry. Tags and fused reporters are not part of them.
UniProt P31424, whole entry: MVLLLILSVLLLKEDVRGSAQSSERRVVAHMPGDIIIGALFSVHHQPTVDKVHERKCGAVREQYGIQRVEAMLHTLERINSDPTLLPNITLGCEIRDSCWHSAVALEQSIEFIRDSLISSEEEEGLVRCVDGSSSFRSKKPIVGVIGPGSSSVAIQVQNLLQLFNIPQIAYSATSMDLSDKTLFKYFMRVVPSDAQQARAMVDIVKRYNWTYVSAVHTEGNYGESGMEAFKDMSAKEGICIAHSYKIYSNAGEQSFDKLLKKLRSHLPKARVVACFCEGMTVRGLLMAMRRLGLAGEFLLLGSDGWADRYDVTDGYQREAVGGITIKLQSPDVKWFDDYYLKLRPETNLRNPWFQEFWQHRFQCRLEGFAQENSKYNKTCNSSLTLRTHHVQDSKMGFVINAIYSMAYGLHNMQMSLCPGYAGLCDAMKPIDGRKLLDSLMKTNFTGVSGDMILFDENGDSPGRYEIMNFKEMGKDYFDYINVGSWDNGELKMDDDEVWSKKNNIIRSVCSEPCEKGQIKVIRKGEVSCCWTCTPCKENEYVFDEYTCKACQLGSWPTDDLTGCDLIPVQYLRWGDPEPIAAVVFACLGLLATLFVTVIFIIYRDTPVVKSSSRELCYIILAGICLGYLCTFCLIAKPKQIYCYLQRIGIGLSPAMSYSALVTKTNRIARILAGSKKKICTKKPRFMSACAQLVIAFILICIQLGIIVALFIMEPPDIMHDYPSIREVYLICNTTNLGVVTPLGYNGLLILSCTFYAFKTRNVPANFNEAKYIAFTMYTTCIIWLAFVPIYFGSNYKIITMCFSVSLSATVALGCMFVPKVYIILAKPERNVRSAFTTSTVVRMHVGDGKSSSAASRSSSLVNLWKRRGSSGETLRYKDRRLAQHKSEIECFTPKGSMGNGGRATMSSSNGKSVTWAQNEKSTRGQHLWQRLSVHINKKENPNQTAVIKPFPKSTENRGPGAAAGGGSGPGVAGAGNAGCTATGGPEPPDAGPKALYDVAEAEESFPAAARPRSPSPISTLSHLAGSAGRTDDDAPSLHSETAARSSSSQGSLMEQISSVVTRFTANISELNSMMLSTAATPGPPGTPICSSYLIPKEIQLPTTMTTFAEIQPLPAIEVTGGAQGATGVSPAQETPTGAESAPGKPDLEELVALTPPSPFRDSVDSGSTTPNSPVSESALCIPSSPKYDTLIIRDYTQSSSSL

Molecule `Cc1cccc(C#Cc2ccccc2)n1` has an IC50 [1] of 0.2 nM and a Ki [2] of 5.7 nM.

Reference: ChEMBL document CHEMBL1149577, “Rational design of 7-arylquinolines as non-competitive metabotropic glutamate receptor subtype 5 antagonists” (Bioorg Med Chem Lett, 2007)
